Values quoted from earlier work as cited in publication PMC11395313.

Molecular target: STIM2 K-rich domain (Homo sapiens) (UniProt Q9P246)

calmodulin (from UniProt P0DP23)
Kd: 1000 nM
